Measured values taken from PubChem BioAssay (NCI).
Some results for these compounds are left out of this collection, so the calls shown say nothing about other tests.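 Growth conditions: 96-well plates. Treatment: test compound, 48 hours, 5 concentrations. Analysis: linear interpolation between bracketing concentrations; unreached endpoints set to highest concentration. GI50 is the concentration that inhibits growth by half. TGI marks complete inhibition of growth.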

Legend:
Assay in all cases: DTP human tumour cell line panel, 48 h
SR leukemia = test system: SR leukemia
M14 melanoma = test system: M14 melanoma
NCI-H460 lung = test system: NCI-H460 lung
SF-268 CNS = test system: SF-268 CNS
HCT-116 colon = test system: HCT-116 colon
MDA-MB-231 breast = test system: MDA-MB-231 breast
OVCAR-5 ovarian = test system: OVCAR-5 ovarian
SNB-75 CNS = test system: SNB-75 CNS
UACC-257 melanoma = test system: UACC-257 melanoma
SF-295 CNS = test system: SF-295 CNS
OVCAR-3 ovarian = test system: OVCAR-3 ovarian
U251 CNS = test system: U251 CNS
MDA-N = test system: MDA-N
TK-10 renal = test system: TK-10 renal
NCI-H226 lung = test system: NCI-H226 lung
ACHN renal = test system: ACHN renal
DU-145 prostate = test system: DU-145 prostate
RPMI-8226 leukemia = test system: RPMI-8226 leukemia
COLO 205 colon = test system: COLO 205 colon
OVCAR-8 ovarian = test system: OVCAR-8 ovarian
UO-31 renal = test system: UO-31 renal
NCI-H23 lung = test system: NCI-H23 lung
HL-60(TB) leukemia = test system: HL-60(TB) leukemia
HS 578T breast = test system: HS 578T breast
SNB-19 CNS = test system: SNB-19 CNS
SK-MEL-28 melanoma = test system: SK-MEL-28 melanoma
PC-3 prostate = test system: PC-3 prostate
HT29 colon = test system: HT29 colon
UACC-62 melanoma = test system: UACC-62 melanoma
LOX IMVI melanoma = test system: LOX IMVI melanoma
HCT-15 colon = test system: HCT-15 colon
NCI-H322M lung = test system: NCI-H322M lung
A549 NSCLC = test system: A549 NSCLC
RXF 393 renal = test system: RXF 393 renal
EKVX NSCLC = test system: EKVX NSCLC
MOLT-4 leukemia = test system: MOLT-4 leukemia
SW-620 colon = test system: SW-620 colon
SN12C renal = test system: SN12C renal
SK-OV-3 ovarian = test system: SK-OV-3 ovarian
CCRF-CEM leukemia = test system: CCRF-CEM leukemia
786-0 renal = test system: 786-0 renal
A498 renal = test system: A498 renal
CAKI-1 renal = test system: CAKI-1 renal
T-47D breast = test system: T-47D breast
SF-539 CNS = test system: SF-539 CNS
NCI/ADR-RES ovarian = test system: NCI/ADR-RES ovarian
OVCAR-4 ovarian = test system: OVCAR-4 ovarian
SK-MEL-2 melanoma = test system: SK-MEL-2 melanoma
HCC-2998 colon = test system: HCC-2998 colon
HOP-92 NSCLC = test system: HOP-92 NSCLC
SK-MEL-5 melanoma = test system: SK-MEL-5 melanoma
NCI-H522 lung = test system: NCI-H522 lung
KM12 colon = test system: KM12 colon
MDA-MB-435 = test system: MDA-MB-435
MALME-3M melanoma = test system: MALME-3M melanoma
IGROV1 ovarian = test system: IGROV1 ovarian
K-562 leukemia = test system: K-562 leukemia
HOP-62 NSCLC = test system: HOP-62 NSCLC
MCF7 breast = test system: MCF7 breast

## CCC#CC(O)(C(=O)OC1CN2CCC1CC2)C1CCCC1 (stereo not drawn)
SR leukemia
  GI50: > 100 µM
  TGI: > 100 µM
M14 melanoma
  GI50: > 100 µM
  TGI: > 100 µM
NCI-H460 lung
  GI50: > 100 µM
  TGI: > 100 µM
SF-268 CNS
  GI50: > 100 µM
  TGI: > 100 µM
HCT-116 colon
  GI50: > 100 µM
  TGI: > 100 µM
MDA-MB-231 breast
  GI50: > 100 µM
  TGI: > 100 µM
OVCAR-5 ovarian
  GI50: > 100 µM
  TGI: > 100 µM
SNB-75 CNS
  GI50: > 100 µM
  TGI: > 100 µM
UACC-257 melanoma
  GI50: > 100 µM
  TGI: > 100 µM
SF-295 CNS
  GI50: > 100 µM
  TGI: > 100 µM
OVCAR-3 ovarian
  GI50: > 100 µM
  TGI: > 100 µM
U251 CNS
  GI50: > 100 µM
  TGI: > 100 µM
MDA-N
  GI50: > 100 µM
  TGI: > 100 µM
TK-10 renal
  GI50: > 100 µM
  TGI: > 100 µM
NCI-H226 lung
  GI50: > 100 µM
  TGI: > 100 µM
ACHN renal
  GI50: > 100 µM
  TGI: > 100 µM
DU-145 prostate
  GI50: > 100 µM
  TGI: > 100 µM
RPMI-8226 leukemia
  GI50: > 100 µM
  TGI: > 100 µM
COLO 205 colon
  GI50: > 100 µM
  TGI: > 100 µM
OVCAR-8 ovarian
  GI50: > 100 µM
  TGI: > 100 µM
UO-31 renal
  GI50: > 100 µM
  TGI: > 100 µM
NCI-H23 lung
  GI50: > 100 µM
  TGI: > 100 µM
HL-60(TB) leukemia
  GI50: > 100 µM
  TGI: > 100 µM
HS 578T breast
  GI50: > 100 µM
  TGI: > 100 µM
SNB-19 CNS
  GI50: > 100 µM
  TGI: > 100 µM
SK-MEL-28 melanoma
  GI50: > 100 µM
  TGI: > 100 µM
PC-3 prostate
  GI50: > 100 µM
  TGI: > 100 µM
HT29 colon
  GI50: > 100 µM
  TGI: > 100 µM
UACC-62 melanoma
  GI50: > 100 µM
  TGI: > 100 µM
LOX IMVI melanoma
  GI50: > 100 µM
  TGI: > 100 µM
HCT-15 colon
  GI50: > 100 µM
  TGI: > 100 µM
NCI-H322M lung
  GI50: > 100 µM
  TGI: > 100 µM
A549 NSCLC
  GI50: > 100 µM
  TGI: > 100 µM
RXF 393 renal
  GI50: > 100 µM
  TGI: > 100 µM
EKVX NSCLC
  GI50: > 100 µM
  TGI: > 100 µM
MOLT-4 leukemia
  GI50: > 100 µM
  TGI: > 100 µM
SW-620 colon
  GI50: > 100 µM
  TGI: > 100 µM
SN12C renal
  GI50: > 100 µM
  TGI: > 100 µM
SK-OV-3 ovarian
  GI50: > 100 µM
  TGI: > 100 µM
CCRF-CEM leukemia
  GI50: > 100 µM
  TGI: > 100 µM
786-0 renal
  GI50: > 100 µM
  TGI: > 100 µM
A498 renal
  GI50: > 100 µM
  TGI: > 100 µM
CAKI-1 renal
  GI50: > 100 µM
  TGI: > 100 µM
T-47D breast
  GI50: > 100 µM
  TGI: > 100 µM
SF-539 CNS
  GI50: > 100 µM
  TGI: > 100 µM
NCI/ADR-RES ovarian
  GI50: > 100 µM
  TGI: > 100 µM
OVCAR-4 ovarian
  GI50: > 100 µM
  TGI: > 100 µM
SK-MEL-2 melanoma
  GI50: > 100 µM
  TGI: > 100 µM
HCC-2998 colon
  GI50: > 100 µM
  TGI: > 100 µM
HOP-92 NSCLC
  GI50: 73.6 µM
  TGI: > 100 µM
SK-MEL-5 melanoma
  GI50: > 100 µM
  TGI: > 100 µM
NCI-H522 lung
  GI50: > 100 µM
  TGI: > 100 µM
KM12 colon
  GI50: > 100 µM
  TGI: > 100 µM
MDA-MB-435
  GI50: > 100 µM
  TGI: > 100 µM
MALME-3M melanoma
  GI50: > 100 µM
  TGI: > 100 µM
IGROV1 ovarian
  GI50: > 100 µM
  TGI: > 100 µM
K-562 leukemia
  GI50: > 100 µM
  TGI: > 100 µM
HOP-62 NSCLC
  GI50: > 100 µM
  TGI: > 100 µM
MCF7 breast
  GI50: > 100 µM
  TGI: > 100 µM
